Test results as given in PMC8534050, “Discovery of a Potent and Highly Isoform-Selective Inhibitor of the Neglected Ribosomal Protein S6 Kinase Beta 2 (S6K2)” (Cancers, 2021).

Amino acid sequences for entries named in this document (tags omitted). A change or cut given only in a name is not applied to a line headed by its entry. Residues count along the entry.
UniProt Q8TD08: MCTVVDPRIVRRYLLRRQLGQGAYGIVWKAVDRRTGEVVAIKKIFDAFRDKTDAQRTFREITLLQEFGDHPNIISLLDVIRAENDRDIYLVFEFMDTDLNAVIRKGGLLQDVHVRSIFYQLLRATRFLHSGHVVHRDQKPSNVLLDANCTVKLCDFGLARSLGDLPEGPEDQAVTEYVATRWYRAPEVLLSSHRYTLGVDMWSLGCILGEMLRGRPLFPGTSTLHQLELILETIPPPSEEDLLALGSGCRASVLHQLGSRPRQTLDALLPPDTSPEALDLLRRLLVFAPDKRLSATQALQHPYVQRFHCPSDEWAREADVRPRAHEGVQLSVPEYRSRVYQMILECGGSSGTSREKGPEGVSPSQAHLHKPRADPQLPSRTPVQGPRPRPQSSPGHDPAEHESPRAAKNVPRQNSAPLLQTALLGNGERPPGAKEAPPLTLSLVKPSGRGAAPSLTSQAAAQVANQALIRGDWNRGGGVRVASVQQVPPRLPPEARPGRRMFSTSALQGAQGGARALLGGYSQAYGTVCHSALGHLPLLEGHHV
UniProt P27448: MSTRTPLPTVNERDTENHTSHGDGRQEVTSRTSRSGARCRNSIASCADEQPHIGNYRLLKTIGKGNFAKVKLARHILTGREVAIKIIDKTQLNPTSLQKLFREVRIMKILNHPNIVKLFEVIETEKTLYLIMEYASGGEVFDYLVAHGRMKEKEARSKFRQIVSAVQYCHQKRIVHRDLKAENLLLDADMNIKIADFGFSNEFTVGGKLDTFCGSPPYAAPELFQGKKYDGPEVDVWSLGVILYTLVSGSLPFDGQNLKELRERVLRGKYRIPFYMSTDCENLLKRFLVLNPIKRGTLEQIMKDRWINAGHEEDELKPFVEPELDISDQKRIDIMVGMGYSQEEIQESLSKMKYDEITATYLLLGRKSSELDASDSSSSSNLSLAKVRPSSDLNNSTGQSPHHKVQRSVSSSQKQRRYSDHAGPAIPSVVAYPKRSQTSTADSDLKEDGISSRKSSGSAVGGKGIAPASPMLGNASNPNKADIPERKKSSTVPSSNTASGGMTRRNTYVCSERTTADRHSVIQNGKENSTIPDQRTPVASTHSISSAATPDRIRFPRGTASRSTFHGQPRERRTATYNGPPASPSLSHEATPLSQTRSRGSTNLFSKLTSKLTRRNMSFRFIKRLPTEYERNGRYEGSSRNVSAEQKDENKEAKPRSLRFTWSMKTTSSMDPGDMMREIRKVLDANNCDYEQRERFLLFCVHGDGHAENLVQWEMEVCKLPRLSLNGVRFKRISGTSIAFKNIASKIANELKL
UniProt Q15418, whole entry: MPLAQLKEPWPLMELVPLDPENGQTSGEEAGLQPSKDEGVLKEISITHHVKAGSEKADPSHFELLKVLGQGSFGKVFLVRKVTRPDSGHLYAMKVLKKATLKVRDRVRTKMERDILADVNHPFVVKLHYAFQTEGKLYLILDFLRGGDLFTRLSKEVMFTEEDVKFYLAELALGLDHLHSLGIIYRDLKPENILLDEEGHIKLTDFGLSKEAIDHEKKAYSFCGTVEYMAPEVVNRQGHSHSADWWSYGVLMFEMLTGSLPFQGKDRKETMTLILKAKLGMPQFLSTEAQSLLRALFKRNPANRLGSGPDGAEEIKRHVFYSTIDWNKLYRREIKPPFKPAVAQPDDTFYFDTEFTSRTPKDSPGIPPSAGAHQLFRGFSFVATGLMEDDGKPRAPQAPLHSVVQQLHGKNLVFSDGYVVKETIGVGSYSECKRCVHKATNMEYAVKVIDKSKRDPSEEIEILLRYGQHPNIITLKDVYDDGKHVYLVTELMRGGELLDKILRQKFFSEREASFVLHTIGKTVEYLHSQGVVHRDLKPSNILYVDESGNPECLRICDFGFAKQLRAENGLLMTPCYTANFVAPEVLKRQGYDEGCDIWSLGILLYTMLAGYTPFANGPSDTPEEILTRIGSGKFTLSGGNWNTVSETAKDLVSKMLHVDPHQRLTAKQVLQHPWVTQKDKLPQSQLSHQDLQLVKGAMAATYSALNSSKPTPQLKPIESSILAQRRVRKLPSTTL
UniProt P15056, whole entry: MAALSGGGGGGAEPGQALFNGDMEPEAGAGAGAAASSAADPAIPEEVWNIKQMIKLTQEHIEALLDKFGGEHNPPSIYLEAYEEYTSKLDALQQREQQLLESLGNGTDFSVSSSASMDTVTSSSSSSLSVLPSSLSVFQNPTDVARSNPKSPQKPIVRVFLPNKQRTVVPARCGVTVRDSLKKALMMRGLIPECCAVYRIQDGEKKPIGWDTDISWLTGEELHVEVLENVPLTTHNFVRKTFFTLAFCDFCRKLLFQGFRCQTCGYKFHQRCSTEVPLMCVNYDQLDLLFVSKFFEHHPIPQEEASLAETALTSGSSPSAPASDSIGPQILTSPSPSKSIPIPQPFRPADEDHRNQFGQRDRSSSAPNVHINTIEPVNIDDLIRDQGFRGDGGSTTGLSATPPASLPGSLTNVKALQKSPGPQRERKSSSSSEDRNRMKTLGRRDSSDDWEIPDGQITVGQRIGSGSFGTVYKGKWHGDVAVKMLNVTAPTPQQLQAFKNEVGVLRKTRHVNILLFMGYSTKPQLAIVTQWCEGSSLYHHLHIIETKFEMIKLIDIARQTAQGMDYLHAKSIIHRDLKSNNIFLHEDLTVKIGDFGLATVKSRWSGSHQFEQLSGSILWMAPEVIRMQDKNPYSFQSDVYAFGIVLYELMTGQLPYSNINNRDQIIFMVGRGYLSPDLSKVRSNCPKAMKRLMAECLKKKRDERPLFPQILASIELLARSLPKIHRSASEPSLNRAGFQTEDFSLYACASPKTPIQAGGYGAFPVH
UniProt P48730: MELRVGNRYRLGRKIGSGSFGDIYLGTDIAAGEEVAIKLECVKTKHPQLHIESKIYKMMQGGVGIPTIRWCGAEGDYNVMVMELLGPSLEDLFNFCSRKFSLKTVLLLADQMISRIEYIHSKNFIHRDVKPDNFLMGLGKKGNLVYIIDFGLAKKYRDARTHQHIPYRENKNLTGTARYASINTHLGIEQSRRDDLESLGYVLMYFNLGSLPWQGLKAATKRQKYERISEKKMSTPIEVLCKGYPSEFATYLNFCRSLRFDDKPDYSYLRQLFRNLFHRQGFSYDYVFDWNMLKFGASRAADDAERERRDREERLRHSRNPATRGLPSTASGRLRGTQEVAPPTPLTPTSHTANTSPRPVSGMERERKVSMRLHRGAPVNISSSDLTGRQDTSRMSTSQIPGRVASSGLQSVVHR
UniProt P21675, whole entry: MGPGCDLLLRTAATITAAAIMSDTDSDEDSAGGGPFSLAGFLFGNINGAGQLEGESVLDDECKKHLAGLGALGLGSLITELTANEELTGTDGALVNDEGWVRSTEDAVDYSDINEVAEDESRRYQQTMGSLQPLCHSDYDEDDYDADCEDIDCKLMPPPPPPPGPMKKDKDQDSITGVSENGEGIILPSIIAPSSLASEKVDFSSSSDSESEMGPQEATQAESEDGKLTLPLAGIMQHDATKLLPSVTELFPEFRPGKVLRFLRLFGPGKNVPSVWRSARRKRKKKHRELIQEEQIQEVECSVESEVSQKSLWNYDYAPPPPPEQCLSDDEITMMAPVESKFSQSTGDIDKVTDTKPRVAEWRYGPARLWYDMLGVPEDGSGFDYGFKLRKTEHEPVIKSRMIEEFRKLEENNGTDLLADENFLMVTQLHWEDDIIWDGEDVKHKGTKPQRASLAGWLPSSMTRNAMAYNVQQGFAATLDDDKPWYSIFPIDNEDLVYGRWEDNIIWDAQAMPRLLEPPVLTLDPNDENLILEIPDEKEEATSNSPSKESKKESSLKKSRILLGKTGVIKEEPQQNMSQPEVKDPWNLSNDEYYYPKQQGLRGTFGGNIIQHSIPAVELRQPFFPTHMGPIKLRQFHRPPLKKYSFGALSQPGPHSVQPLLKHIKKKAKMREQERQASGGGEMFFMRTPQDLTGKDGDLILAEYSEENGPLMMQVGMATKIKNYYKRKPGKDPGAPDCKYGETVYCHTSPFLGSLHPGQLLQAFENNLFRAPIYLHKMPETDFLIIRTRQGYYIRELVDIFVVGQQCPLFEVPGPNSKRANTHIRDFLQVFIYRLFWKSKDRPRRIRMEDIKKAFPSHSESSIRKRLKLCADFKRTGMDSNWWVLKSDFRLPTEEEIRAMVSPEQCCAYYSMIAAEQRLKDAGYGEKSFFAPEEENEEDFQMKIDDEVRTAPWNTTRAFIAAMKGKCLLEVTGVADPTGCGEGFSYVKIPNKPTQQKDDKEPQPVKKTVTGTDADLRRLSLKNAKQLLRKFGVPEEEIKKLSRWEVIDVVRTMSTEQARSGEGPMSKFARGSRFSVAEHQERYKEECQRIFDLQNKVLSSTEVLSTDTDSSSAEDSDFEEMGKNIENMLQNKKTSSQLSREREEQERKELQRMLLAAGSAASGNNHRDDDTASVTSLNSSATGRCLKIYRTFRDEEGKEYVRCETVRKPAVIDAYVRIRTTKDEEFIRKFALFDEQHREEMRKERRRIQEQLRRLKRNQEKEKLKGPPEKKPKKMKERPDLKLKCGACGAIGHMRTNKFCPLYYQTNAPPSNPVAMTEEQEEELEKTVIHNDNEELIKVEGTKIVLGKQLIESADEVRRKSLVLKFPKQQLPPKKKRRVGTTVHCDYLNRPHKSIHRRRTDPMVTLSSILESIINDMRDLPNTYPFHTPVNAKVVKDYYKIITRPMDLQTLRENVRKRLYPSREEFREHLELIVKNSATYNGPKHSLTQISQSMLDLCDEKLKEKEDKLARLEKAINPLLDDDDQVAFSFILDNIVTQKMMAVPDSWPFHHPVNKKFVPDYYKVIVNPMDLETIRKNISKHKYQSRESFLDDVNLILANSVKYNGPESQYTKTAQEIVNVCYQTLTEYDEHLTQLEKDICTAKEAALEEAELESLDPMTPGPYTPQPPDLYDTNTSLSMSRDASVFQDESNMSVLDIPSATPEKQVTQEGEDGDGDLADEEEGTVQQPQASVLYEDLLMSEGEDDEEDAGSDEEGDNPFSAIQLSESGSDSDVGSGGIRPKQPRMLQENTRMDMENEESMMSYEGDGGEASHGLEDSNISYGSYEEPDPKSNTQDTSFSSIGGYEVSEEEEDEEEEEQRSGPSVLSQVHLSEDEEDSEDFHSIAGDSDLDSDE
UniProt Q9P289: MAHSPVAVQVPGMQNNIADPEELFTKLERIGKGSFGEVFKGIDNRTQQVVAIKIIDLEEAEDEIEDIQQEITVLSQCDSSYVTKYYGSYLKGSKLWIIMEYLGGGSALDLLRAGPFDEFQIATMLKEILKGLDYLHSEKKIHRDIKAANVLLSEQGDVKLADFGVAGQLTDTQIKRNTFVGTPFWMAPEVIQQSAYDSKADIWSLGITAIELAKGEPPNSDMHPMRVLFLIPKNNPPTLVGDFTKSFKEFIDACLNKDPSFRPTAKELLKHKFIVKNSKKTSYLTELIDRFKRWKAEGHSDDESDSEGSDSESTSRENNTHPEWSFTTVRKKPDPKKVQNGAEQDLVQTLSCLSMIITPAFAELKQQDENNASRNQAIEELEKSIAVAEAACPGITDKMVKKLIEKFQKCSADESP
UniProt Q13873, 27-1038: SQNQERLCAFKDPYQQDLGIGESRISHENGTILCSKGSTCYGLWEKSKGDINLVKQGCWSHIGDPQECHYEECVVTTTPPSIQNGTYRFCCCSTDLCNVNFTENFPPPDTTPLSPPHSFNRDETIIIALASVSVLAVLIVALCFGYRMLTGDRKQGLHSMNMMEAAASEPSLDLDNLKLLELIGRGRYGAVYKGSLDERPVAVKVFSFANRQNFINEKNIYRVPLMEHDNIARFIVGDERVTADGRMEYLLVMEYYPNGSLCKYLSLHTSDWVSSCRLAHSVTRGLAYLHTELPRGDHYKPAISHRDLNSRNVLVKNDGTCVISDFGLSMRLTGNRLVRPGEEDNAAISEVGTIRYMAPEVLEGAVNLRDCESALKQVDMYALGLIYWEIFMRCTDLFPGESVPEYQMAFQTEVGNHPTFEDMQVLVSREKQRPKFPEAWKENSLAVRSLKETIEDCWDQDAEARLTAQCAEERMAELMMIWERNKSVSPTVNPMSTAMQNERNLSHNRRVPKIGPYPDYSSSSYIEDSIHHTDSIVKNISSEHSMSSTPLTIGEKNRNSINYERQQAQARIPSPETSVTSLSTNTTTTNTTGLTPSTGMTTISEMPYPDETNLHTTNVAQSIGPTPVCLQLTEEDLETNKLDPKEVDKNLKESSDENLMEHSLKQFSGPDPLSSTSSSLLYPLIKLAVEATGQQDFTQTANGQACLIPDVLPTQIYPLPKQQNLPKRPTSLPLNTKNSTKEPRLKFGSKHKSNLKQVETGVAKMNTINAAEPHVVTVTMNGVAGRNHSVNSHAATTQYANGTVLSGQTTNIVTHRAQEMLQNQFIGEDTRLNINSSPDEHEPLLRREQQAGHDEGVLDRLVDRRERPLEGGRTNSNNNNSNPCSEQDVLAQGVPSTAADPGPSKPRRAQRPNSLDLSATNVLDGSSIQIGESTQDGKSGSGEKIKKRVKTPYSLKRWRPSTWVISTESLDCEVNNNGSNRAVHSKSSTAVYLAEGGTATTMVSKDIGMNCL

Experiments:
Experiment in all cases: DSF thermal shift assay
Assay type in all cases: binding
[1] = target: T1, MAP2K6 (Homo sapiens, UniProt P52564); conditions: read-out: ΔTm
T1 construct: purchased in-house DSF (thermal shift) panel per Fedorov et al
Experimental: (§1) Differences in the melting temperature (ΔTm) were measured as described by Fedorov et al.. Purified proteins were buffered in 25 mM HEPES (pH 7.5), 500 mM NaCl and were assayed in a 384-well plate with a final protein concentration of 2 μM in 10 μL assay volume. Inhibitors were added to a final concentration of 10 μM using an ECHO 550 acoustic dispenser (Labcyte, San José, CA, USA). As a fluorescence probe, SYPRO-Orange (Molecular Probes, Eugene, OR, USA) was added in a 1:5000 dilution. Filters for excitation and emission were set to 465 nm and 590 nm, respectively. The temperature was increased from 25 °C with 3 °C/min to a final temperature of 95 °C, while scanning, using the QuantStudio5 (Applied Biosystems, Waltham, MA, USA). Data were analyzed through Boltzmann equation in the Protein Thermal Shift software (Applied Biosystems, Waltham, MA, USA). Samples were measured in technical duplicates.

[2] = target: T2, MAPK14 (Homo sapiens, UniProt Q16539); conditions: read-out: ΔTm
T2 construct: purchased in-house DSF (thermal shift) panel per Fedorov et al
Experimental: as §1

[3] = target: T3, AKT3 (Homo sapiens, UniProt Q9Y243); conditions: read-out: ΔTm
T3 construct: purchased in-house DSF (thermal shift) panel per Fedorov et al
Experimental: as §1

[4] = target: T4, DAPK3 (Homo sapiens, UniProt O43293); conditions: read-out: ΔTm
T4 construct: purchased in-house DSF (thermal shift) panel per Fedorov et al
Experimental: as §1

[5] = target: T5, NEK1 (Homo sapiens, UniProt Q96PY6); conditions: read-out: ΔTm
T5 construct: purchased in-house DSF (thermal shift) panel per Fedorov et al
Experimental: as §1

[6] = target: T6, RPS6KA6 (Homo sapiens, UniProt Q9UK32); conditions: read-out: ΔTm
T6 construct: purchased in-house DSF (thermal shift) panel per Fedorov et al
Experimental: as §1

[7] = target: T7, SRPK1 (Homo sapiens, UniProt Q96SB4); conditions: inhibitor 10 μM, protein 2 μM
T7 construct: purchased in-house DSF (thermal shift) panel per Fedorov et al
Experimental: as §1

[8] = target: T8, MAPK10 (Homo sapiens, UniProt P53779); conditions: read-out: ΔTm
T8 construct: purchased in-house DSF (thermal shift) panel per Fedorov et al
Experimental: as §1

[9] = target: T9, MAPK15 (Homo sapiens, UniProt Q8TD08); conditions: read-out: ΔTm
T9 construct: purchased in-house DSF (thermal shift) panel per Fedorov et al
Experimental: as §1

[10] = target: T10, GPRK5 (Homo sapiens, UniProt P34947); conditions: inhibitor 10 μM, protein 2 μM
T10 construct: purchased in-house DSF (thermal shift) panel per Fedorov et al
Experimental: as §1

[11] = target: T11, DMPK1 (Homo sapiens, UniProt Q09013); conditions: inhibitor 10 μM, protein 2 μM
T11 construct: purchased in-house DSF (thermal shift) panel per Fedorov et al
Experimental: as §1

[12] = target: T12, MARK3 (Homo sapiens, UniProt P27448); conditions: read-out: ΔTm
T12 construct: purchased in-house DSF (thermal shift) panel per Fedorov et al
Experimental: as §1

[13] = target: T13, MST3 (Homo sapiens, UniProt Q9Y6E0); conditions: read-out: ΔTm
T13 construct: purchased in-house DSF (thermal shift) panel per Fedorov et al
Experimental: as §1

[14] = target: T14, RPS6KA1 (Homo sapiens, UniProt Q15418); conditions: read-out: ΔTm
T14 construct: purchased in-house DSF (thermal shift) panel per Fedorov et al
Experimental: as §1

[15] = target: T15, MAP2K1 (Homo sapiens, UniProt Q02750); conditions: inhibitor 10 μM, protein 2 μM
T15 construct: purchased in-house DSF (thermal shift) panel per Fedorov et al
Experimental: as §1

[16] = target: T16, BRAF (Homo sapiens, UniProt P15056); conditions: read-out: ΔTm
T16 construct: purchased in-house DSF (thermal shift) panel per Fedorov et al
Experimental: as §1

[17] = target: T17, CLK3 (Homo sapiens, UniProt P49761); conditions: read-out: ΔTm
T17 construct: purchased in-house DSF (thermal shift) panel per Fedorov et al
Experimental: as §1

[18] = target: T18, GSG2 (Homo sapiens, UniProt Q8TF76); conditions: inhibitor 10 μM, protein 2 μM
T18 construct: purchased in-house DSF (thermal shift) panel per Fedorov et al
Experimental: as §1

[19] = target: T19, PIM1 (Homo sapiens, UniProt P11309); conditions: read-out: ΔTm
T19 construct: purchased in-house DSF (thermal shift) panel per Fedorov et al
Experimental: as §1

[20] = target: T20, CSNK1D (Homo sapiens, UniProt P48730); conditions: inhibitor 10 μM, protein 2 μM
T20 construct: purchased in-house DSF (thermal shift) panel per Fedorov et al
Experimental: as §1

[21] = target: T21, TAF1 (Homo sapiens, UniProt P21675); conditions: inhibitor 10 μM, protein 2 μM
T21 construct: purchased in-house DSF (thermal shift) panel per Fedorov et al
Experimental: as §1

[22] = target: T22, SRC (Homo sapiens, UniProt P12931); conditions: read-out: ΔTm
T22 construct: purchased in-house DSF (thermal shift) panel per Fedorov et al
Experimental: as §1

[23] = target: T23, MST4 (Homo sapiens, UniProt Q9P289); conditions: read-out: ΔTm
T23 construct: purchased in-house DSF (thermal shift) panel per Fedorov et al
Experimental: as §1

[24] = target: T24, BMP2K (Homo sapiens, UniProt Q9NSY1); conditions: read-out: ΔTm
T24 construct: purchased in-house DSF (thermal shift) panel per Fedorov et al
Experimental: as §1

[25] = target: T25, MAP3K5 (Homo sapiens, UniProt Q99683); conditions: read-out: ΔTm
T25 construct: purchased in-house DSF (thermal shift) panel per Fedorov et al
Experimental: as §1

[26] = target: T26, MAPK9 (Homo sapiens, UniProt P45984); conditions: read-out: ΔTm
T26 construct: purchased in-house DSF (thermal shift) panel per Fedorov et al
Experimental: as §1

[27] = target: T27, BMPR2 (Homo sapiens, UniProt Q13873); conditions: inhibitor 10 μM, protein 2 μM
T27 construct: purchased in-house DSF (thermal shift) panel per Fedorov et al
Experimental: as §1

[28] = target: T28, CSNK2A2 (Homo sapiens, UniProt P19784); conditions: inhibitor 10 μM, protein 2 μM
T28 construct: purchased in-house DSF (thermal shift) panel per Fedorov et al
Experimental: as §1

[29] = target: T29, TOPK (Homo sapiens, UniProt Q96KB5); conditions: inhibitor 10 μM, protein 2 μM
T29 construct: purchased in-house DSF (thermal shift) panel per Fedorov et al
Experimental: as §1

[30] = target: T30, FLT1 (Homo sapiens, UniProt P17948); conditions: read-out: ΔTm
T30 construct: purchased in-house DSF (thermal shift) panel per Fedorov et al
Experimental: as §1

[31] = target: T31, CAMK2D (Homo sapiens, UniProt Q13557); conditions: read-out: ΔTm
T31 construct: purchased in-house DSF (thermal shift) panel per Fedorov et al
Experimental: as §1

[32] = target: T32, MAP2K4 (Homo sapiens, UniProt P45985); conditions: read-out: ΔTm
T32 construct: purchased in-house DSF (thermal shift) panel per Fedorov et al
Experimental: as §1

[33] = target: T33, PHKG2 (Homo sapiens, UniProt P15735); conditions: inhibitor 10 μM, protein 2 μM
T33 construct: purchased in-house DSF (thermal shift) panel per Fedorov et al
Experimental: as §1

[34] = target: T34, EPHA2 (Homo sapiens, UniProt P29317); conditions: read-out: ΔTm
T34 construct: purchased in-house DSF (thermal shift) panel per Fedorov et al
Experimental: as §1

[35] = target: T35, NEK7 (Homo sapiens, UniProt Q8TDX7); conditions: inhibitor 10 μM, protein 2 μM
T35 construct: purchased in-house DSF (thermal shift) panel per Fedorov et al
Experimental: as §1

[36] = target: T36, CK2A1 (Homo sapiens, UniProt P68400); conditions: read-out: ΔTm
T36 construct: purchased in-house DSF (thermal shift) panel per Fedorov et al
Experimental: as §1

CN[C@@H]1C[C@H]2O[C@@](C)([C@@H]1OC)n1c3ccccc3c3c4c(c5c6ccccc6n2c5c31)C(=O)NC4 [Staurosporine, reference compound]
ΔTm at 10 µM [1]: 12.5 °C | ΔTm at 10 µM [2]: 0 °C | ΔTm at 10 µM [3]: 7.8 °C | ΔTm at 10 µM [4]: 18.7 °C | ΔTm at 10 µM [5]: -0.7 °C | ΔTm at 10 µM [6]: 1 °C | ΔTm at 10 µM [7]: 7.4 °C | ΔTm at 10 µM [8]: 8.2 °C | ΔTm at 10 µM [9]: 14.2 °C | ΔTm at 10 µM [10]: 8.6 °C | ΔTm at 10 µM [11]: 9.8 °C | ΔTm at 10 µM [12]: 19.2 °C | ΔTm at 10 µM [13]: 6.5 °C | ΔTm at 10 µM [14]: 4.6 °C | ΔTm at 10 µM [15]: 1.6 °C | ΔTm at 10 µM [16]: 0.4 °C | ΔTm at 10 µM [17]: 7.5 °C | ΔTm at 10 µM [18]: 7.9 °C | ΔTm at 10 µM [19]: 11.5 °C | ΔTm at 10 µM [20]: 2.5 °C | ΔTm at 10 µM [21]: 0.4 °C | ΔTm at 10 µM [22]: 5.1 °C | ΔTm at 10 µM [23]: 4.6 °C | ΔTm at 10 µM [24]: 19.2 °C | ΔTm at 10 µM [25]: 17.6 °C | ΔTm at 10 µM [26]: 4.8 °C | ΔTm at 10 µM [27]: 2.9 °C | ΔTm at 10 µM [28]: 5.7 °C | ΔTm at 10 µM [29]: 8.1 °C | ΔTm at 10 µM [30]: 12.5 °C | ΔTm at 10 µM [31]: 17.5 °C | ΔTm at 10 µM [32]: 12.5 °C | ΔTm at 10 µM [33]: 22.5 °C | ΔTm at 10 µM [34]: 7.8 °C | ΔTm at 10 µM [35]: -0.2 °C | ΔTm at 10 µM [36]: 4.4 °C
